The values below come from US9403843B2, “Cysteine protease inhibitors and uses thereof” (The Trustees of Columbia University in the City of New York, priority 2012, dated 2016).

Sequences of proteins named here, by UniProt entry; tags and fusion partners are left off. A change or cut given only in a name is not applied to a line headed by its entry.
UniProt P07384: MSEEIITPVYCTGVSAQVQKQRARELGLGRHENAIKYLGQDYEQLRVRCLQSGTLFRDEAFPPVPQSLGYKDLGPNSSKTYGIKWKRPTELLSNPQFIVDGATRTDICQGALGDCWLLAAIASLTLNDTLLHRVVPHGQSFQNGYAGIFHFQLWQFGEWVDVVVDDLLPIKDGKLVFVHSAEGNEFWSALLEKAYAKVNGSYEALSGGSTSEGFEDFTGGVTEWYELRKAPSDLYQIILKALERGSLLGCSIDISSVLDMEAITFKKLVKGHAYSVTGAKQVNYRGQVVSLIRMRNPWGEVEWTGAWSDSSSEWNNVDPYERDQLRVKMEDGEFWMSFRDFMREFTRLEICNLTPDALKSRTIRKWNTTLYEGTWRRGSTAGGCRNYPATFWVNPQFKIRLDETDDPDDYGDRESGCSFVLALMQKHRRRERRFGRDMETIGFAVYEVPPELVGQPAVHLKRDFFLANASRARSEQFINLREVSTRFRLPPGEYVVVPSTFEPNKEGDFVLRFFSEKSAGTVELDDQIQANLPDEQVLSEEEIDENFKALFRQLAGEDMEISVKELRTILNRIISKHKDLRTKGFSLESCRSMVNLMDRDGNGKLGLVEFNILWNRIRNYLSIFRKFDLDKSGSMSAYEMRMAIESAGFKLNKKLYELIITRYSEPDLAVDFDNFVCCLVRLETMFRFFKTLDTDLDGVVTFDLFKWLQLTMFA

Like-named read-outs stand apart in the source and are kept apart here.

In test [1] the target is T1, full-length human Cal1 (Homo sapiens (Human), UniProt P07384). Briefly: Calpain inhibition FRET assay. Format: biochemical. As to conditions: Table 3, 20 min incubation, FRET substrate.
Test [2] deals with T1, full-length human Cal1. Kind of test: Calpain inhibition FRET assay. Type of test: biochemical. The following applies: Table 2; approximate IC50; read-out: Cal I IC50. How it is done:
Calpain activity was measured using full-length human Cal1 in the presence of a FRET substrate. IC50 values were approximated by co-incubation of varying concentrations of the appropriate inhibitor (10, 100, 500, 1000 nM) in the presence of the FRET substrate (DABCYL)TPLK-SPPSPR-(EDANS) (SEQ ID NO: 5) and activation buffer. Fluorescence was measured following a 20 min incubation and % inhibition calculated by normalizing to control experiments containing no inhibitor. A peptide inhibitor, Z-LLY-FMK (SEQ ID NO: 6), was used as a positive control. In the case of potent inhibitors, the concentration-response was extended to include 1, 10, 50, 100, 250, and 500 nM inhibitor.
The Calbiochem InnoZyme activity kit was used for measuring the inhibition effect inhibitors on human erythrocyte calpain 1 activity. A calpain FRET substrate, (DABCYL)-[…]-(EDANS) (SEQ ID NO: 9), was used to detect the activity of Cal1. 20 μM of the FRET substrate, 10 nM of native Cal1, and 20 μM TCEP (reducing agent) were added to the reaction mixture containing assay buffer (Tris [10 mM], NaCl [100 mM], pH 7.4). Cal1 was activated by the addition of 10 μM calcium. Cleavage of the scissile bond amide bond, K-S, releases the fluorophore (EDANS) from the internal quenching molecule (DABCYL), resulting in an increase in fluorescence measured at 320 nm excitation and 480 nm emission wave lengths for 30 min. […]

In general, IC50 refers to the point on the concentration scale where inhibition reaches its midpoint. Regarding `CC(C)C[C@H](NC(=O)[C@H]1O[C@@H]1C(=O)O)C(=O)Nc1nc(-c2ccc(F)cc2)cs1` [Compound 24a, (2S,3S)-3-((S)-1-(4-(4-fluorophenyl)thiazol-2-ylamino)-4-methyl-1-oxopentan-2-ylcarbamoyl)oxirane-2-carboxylic acid], the IC50 in test [1] worked out at 50 nM; in test [2], 30 nM.
